The test system of one experiment is GEO cells. Kind of experiment: Cell viability/proliferation, MTT assay, GEO. It is filed as cell-based, human. The conditions noted are these: FIG. 9B. As to the method: A representative experiment is shown. Bars represent mean±SEM.
(§1) Tumor cell lines HN5, UMSCC 10A, GEO and EF43.fgf-4 were culture in standard conditions. Viability was assessed by MTT assays (Sigma) as described (Cardó-Vila et al., 2003). […] Samples were read at 570 nm.
(§2) Tumor cell lines HN5, UMSCC 10A, GEO and EF43.fgf-4 were maintained in high-glucose DMEM, supplemented with 10% heat-inactivated fetal bovine serum, 20 mM HEPES (pH 7.4), 100 IU/ml penicillin, 100 μg/ml streptomycin, and 4 mM glutamine at 5% CO2 at 37° C. EF43.fgf-4 were grown in G418 as described (Hajitou et al., 2006).
In general terms: Formazan colour is commonly taken as a measure of viable cells.

A further experiment has as its system HN5 tumor cells. As to the kind of experiment: Cell viability/proliferation, MTT assay, HN5. Type of experiment: cell-based, human. On the set-up: dose or concentration left out as unconfirmed. The conditions noted are these: 120 h, increasing concentrations, FIG. 4C. As to the method: (§3) A representative experiment is depicted. […] Bars represent mean±SEM. […] (FIG. 4C) Effect of the synthetic peptides on HN5 tumor cells. […] Viability in the absence of peptide was set to 100%. […] Bars represent mean±SEM. […] Receptors were immunoprecipitated with antibodies against phosphorylated (p) pEGFR and were immunoblotted with anti-phosphotyrosine IgG.
as §1, §2

The subject of a further experiment is EGFR. Kind of experiment: EGF-induced EGFR autophosphorylation (immunoprecipitation, anti-phosphotyrosine blot). The conditions noted are these: HN5 tumor cells, EGF 15 min, FIG. 4E. Type of experiment: cell-based, human. As to the method:
as §3
Cells were lysed and lysates were used for immunoprecipitation assays as described (Cardó-Vila et al., 2003). Cells were lysed in 20 mM Tris-HCl (pH 7.8), 150 mM NaCl, 1 mM EDTA, 1 mM EGTA, 10 mM DTT, 10 mM PMSF 1% Titron X-100, phosphatase inhibitor I and II (Sigma) and protease inhibitor, sonicated, and clarified by centrifugation. For immunoprecipitation (IP) studies, lysates were incubated with primary antibodies, and the immune complexes were precipitated with protein A-Sepharose beads. Cell lysates or immunoprecipitated proteins were separated by SDS-PAGE, electro-transferred onto nitrocellulose, and probed with primary antibodies and horseradish peroxidase-labeled secondary antibodies.
An anti-phosphotyrosine antibody (PY20) was used for EGFR activation assays. Tumor cells were starved and/or incubated with ligands. […]

The target of experiment [1] is binding of EGF to the EGFR (Homo sapiens, UniProt P01133). Kind of experiment: Displacement of EGF from immobilized EGFR (FIG. 6A). As to conditions: D(CARVC) from 30 to 1,000 mM, cetuximab 12 nM positive control. The source says: The EGFR was coated onto 96-well plates at decreasing concentrations. […] D(CAAVC (SEQ ID NO:8)) was used as a negative peptidomimetic control at the same concentrations (circles). […] Bars represent mean±SEM.
Decreasing molar concentrations of EGFR were immobilized in vitro, after which the native ligand (EGF or TGFα) was used to establish the baseline for the binding of EGF to the EGFR, or of TGFα to the EGFR.

One substance from patent US20130059793A1, “EGF RECEPTOR MIMICKING PEPTIDES” (BOARD OF REGENTS, THE UNIVERSITY OF TEXAS SYSTEM, priority 2010, published 2013) can be followed below.

Turning to cetuximab [reference compound], the “cell proliferation / viability” value in the experiment on GEO cells and with HN5 tumor cells was “inhibited cell proliferation” throughout. Besides, the “EGF-induced tyrosine phosphorylation of the EGFR” value in the experiment on EGFR was “effectively inhibited”. In experiment [1], the “displacement of EGF from the EGFR” value is “displaced EGF at low nanomolar concentrations”.
